Measured values: patent US20210363152A1, “AMINOAZINE AMIDES” (Hoffmann-La Roche Inc., priority 2018, published 2021)

Target: Autotaxin enzyme (ATX) (Homo sapiens, UniProt Q13822)
Assay: In vitro ATX assay (enzymatic ATX inhibition, LPC 14:0 substrate, choline oxidase/HRP absorbance readout)
Conditions: read-out: ATX IC50, 0.3 mM LPC 14:0, 37° C., 4 hours, absorbance 555 nm
Description: • Assay buffer: 100 mM Tris-HCl, pH 9.0, 500 mM NaCl, 5 mM MgCl2, 30 μM CoCl2, 0.05% Triton X-100 • Assay buffer II: 4.5 mM 4-AAP, 2.7 mM TOOS, 21.2 U/mL HRP, 3 U/mL CO, In 50 mM Tris-HCl pH 8.0, 4.5 mM MgCl2
A compound preparation plate (Nunc 249944) was prepared by adding 30 mM stock solution (in DMSO) of test compound and performing a serial full-log dilution down to 30 nM. Two μL/well were transferred from the first compound prep plate to a compound dilution plate (Corning, 3641) and 198 μL assay buffer I was added for a […].
A 10 ng/mL solution of ATX was prepared by diluting in assay buffer I, and 80 μL/well were added to the assay plate (Corning, 3641); negative control wells contained 80 μL/well assay buffer I only (no ATX). Ten μL/well from the compound dilution plate (containing serially diluted test compound or DMSO) were added to the assay plate, which was then incubated at 37° C. for 15 minutes. A solution of LPC 14:0 was prepared in assay buffer I at 3 mM and 10 μl/well were added to the assay plate, for a final concentration of 0.3 mM LPC, and returned to 37° C. incubator for 4 hours. After 4 hour incubation, 100 μL/well of assay buffer II was added to all wells of the assay plate. The plate was incubated at RT for 15 minutes, prior to reading on FlexStation in absorbance mode, 555 nm. […]

## O=C(c1cnc(NCc2cc(CC3CC3)cc(OC(F)(F)F)c2)nc1)N1CCC12COC2
  IC50: < 100 nM
